# Test results: PubChem BioAssay AID528 (NMMLSC, 2006)
# Sequences of proteins named here, by UniProt entry; tags and fusion partners are left off.
# UniProt P13612, whole entry, looked up: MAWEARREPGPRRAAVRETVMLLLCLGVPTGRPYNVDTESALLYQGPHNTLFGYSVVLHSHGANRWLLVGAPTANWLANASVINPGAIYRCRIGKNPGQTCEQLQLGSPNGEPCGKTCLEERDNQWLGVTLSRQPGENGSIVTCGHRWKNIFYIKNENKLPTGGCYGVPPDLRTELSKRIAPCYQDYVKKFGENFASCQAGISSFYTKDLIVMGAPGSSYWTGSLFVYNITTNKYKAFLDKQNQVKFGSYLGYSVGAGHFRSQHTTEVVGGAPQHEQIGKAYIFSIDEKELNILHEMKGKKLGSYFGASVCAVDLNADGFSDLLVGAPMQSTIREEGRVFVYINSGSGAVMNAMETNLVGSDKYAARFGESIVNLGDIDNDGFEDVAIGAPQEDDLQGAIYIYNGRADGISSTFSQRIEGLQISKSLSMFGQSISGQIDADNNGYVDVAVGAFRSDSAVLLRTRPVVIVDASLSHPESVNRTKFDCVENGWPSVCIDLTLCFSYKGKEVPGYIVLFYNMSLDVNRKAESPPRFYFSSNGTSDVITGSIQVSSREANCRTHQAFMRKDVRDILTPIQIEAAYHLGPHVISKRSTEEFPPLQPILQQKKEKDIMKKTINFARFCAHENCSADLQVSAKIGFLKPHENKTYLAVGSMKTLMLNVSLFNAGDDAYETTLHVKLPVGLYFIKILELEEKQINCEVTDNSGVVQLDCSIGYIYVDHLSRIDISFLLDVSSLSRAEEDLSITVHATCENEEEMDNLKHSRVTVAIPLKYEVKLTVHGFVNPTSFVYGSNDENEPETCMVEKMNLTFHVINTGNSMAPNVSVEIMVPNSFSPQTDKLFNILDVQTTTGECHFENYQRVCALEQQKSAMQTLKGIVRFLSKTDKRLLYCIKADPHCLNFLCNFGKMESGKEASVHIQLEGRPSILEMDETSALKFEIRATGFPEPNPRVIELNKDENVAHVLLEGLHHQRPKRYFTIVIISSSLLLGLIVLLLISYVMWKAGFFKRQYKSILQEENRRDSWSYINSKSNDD
# This is a selection; strong and weak results do not stand in their true shares. Results filed as inconclusive are left out. Active and inactive are the calls of the source.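 How the source made its calls: active means fluorescent ligand binding to cells raised by more than 40% of the manganese-induced maximum; inconclusive means compound's own fluorescence above 85% of the ligand control signal; inactive means the rest.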
# Biological target: Integrin alpha-4 (Homo sapiens) (UniProt P13612)
# Experiment: enhancers of LDV-FITC binding to VLA-4 integrin, primary screen, Jurkat cells, flow cytometry (AID 528);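 further: 0% = ligand binding without compound and 100% = manganese-stimulated maximal binding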
# Conditions: active compounds read high, screened at 10 µM (by protocol)
row,Structure (SMILES),activation
1,O=P(Nc1nccs1)(c1ccccc1)c1ccccc1,inactive: -2%
2,COP1(=S)c2c(C)nn(CCC#N)c2N=C(c2ccc(F)cc2)N1C (stereo unspecified),inactive: 0%
3,O=C(COc1ccccc1)OC1CN2CCC1CC2 (stereo unspecified),inactive: 2.5%
4,Clc1n[nH]nc1-c1nn[nH][15n]1,inactive: -7%
5,Cc1nn(-c2ccccc2)c2c1P(=O)(N1CCOCC1)N(C)C(c1ccccc1)=N2 (stereo unspecified),inactive: -4.5%
6,CCOP1(=S)c2c(C)nn(CCC#N)c2N=C(c2ccccc2F)N1C (stereo unspecified),inactive: 9%
